Results: US9751882B2, “Diaryl[A, G]quinolizidine compound, preparation method therefor, pharmaceutical composition, and uses thereof” (SHANGHAI INSTITUTE OF MATERIA MEDICA, CHINESE ACADEMY OF …, priority 2012, dated 2017)

The chains behind the UniProt entries cited, without tags or fusion partners.
UniProt O77680, whole entry: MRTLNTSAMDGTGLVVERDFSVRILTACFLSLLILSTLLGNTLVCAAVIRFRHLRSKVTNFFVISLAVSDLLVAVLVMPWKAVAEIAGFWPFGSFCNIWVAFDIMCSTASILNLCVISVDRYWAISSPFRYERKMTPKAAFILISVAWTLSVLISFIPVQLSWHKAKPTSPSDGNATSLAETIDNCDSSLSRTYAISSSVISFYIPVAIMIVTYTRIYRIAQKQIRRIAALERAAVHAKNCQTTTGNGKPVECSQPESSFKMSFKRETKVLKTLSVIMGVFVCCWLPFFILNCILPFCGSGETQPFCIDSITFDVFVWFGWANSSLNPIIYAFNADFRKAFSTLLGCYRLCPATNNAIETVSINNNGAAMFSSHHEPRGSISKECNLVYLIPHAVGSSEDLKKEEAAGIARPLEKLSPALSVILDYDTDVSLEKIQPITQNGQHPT

Target: dopamine D1 receptor (Macaca mulatta, UniProt O77680)
Test: Radioligand binding affinity on dopamine D1 receptor ([3H]-SCH23390)
Details: D1 receptor protein expressed in HEK-293 cells
Description: (1) Determination of the affinity of the diarylo[a,g]quinolizines of formula (I) and derivatives thereof on dopamine D1, dopamine D2, 5-HT1A and 5-HT2A receptors.
The compound of the invention at different concentrations (10^−5 M-10^−11 M), an isotope receptor ligand and a receptor protein were loaded into a reaction tube, incubated at 30° C. in a water bath for 60 min, and then terminated in a refrigerator. The mixture was filtered through suction filtration using GF/C glass fiber paper on a Millipore filter (millipore) cell sample collector, and dried. The resulting sample was placed into a 0.5 mL tube, added with 500 μL of liquid scintillation fluid, and counted for measuring the intensity of radioativity.
For dopamine D1 receptor: isotope receptor ligand [^3H]-SCH23390 (85.0 Ci/mmol) (D1-selective, purchased from Amersham Corporation), D1 receptor protein expressed in HEK-293 cells;
Firstly, the above […] were dissolved in DMSO and then diluted with double distilled water to the appropriate concentration (10^−5 M-10^−11 M).
(+) Butaclamo was purchased from RBI Company, GF/C glass fiber filter paper was purchased from Whatman Co., liquid scintillation fluid (dopamine D1, D2 receptors)/liposoluble scintillation fluid (5-HT1A. 5-HT2A receptor), Beckman LS-6500 multi-function liquid scintillation counter.

## COc1cc2c(cc1O)[C@@H]1Cc3sc(CC(C)C)cc3CN1CC2 [DS006, (S)-2-hydroxy-3-methoxy-10-(2-methylpropyl)-5,8, 12,12a-tetrahydro-6H-benzo[a]thieno[3,2-g]quinolizine]
  D1 receptor inhibition %: 94.29%
